Experimental data taken from PubChem BioAssay (NCI).
Some results for these compounds are left out of this collection, so the calls shown say nothing about other tests.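 Results reflect a 48-hour exposure of cells in 96-well plates to compound at five concentrations. Abbreviation: GI50, concentration required for 50% inhibition of growth. TGI denotes the concentration required for complete inhibition of growth.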

Assays:
Experiment in all cases: inhibition of tumour cell growth, NCI panel, 48 h
[1] = system: NCI-H23 lung
[2] = system: SNB-19 CNS
[3] = system: NCI-H460 lung
[4] = system: SF-295 CNS
[5] = system: MDA-MB-435
[6] = system: SK-MEL-2 melanoma
[7] = system: NCI-H226 lung
[8] = system: KM12 colon
[9] = system: EKVX NSCLC
[10] = system: HS 578T breast
[11] = system: ACHN renal
[12] = system: MCF7 breast
[13] = system: CCRF-CEM leukemia
[14] = system: MALME-3M melanoma
[15] = system: LOX IMVI melanoma
[16] = system: BT-549 breast
[17] = system: HCT-116 colon
[18] = system: RPMI-8226 leukemia
[19] = system: MDA-N
[20] = system: SW-620 colon
[21] = system: MDA-MB-231 breast
[22] = system: A549 NSCLC
[23] = system: SK-MEL-5 melanoma
[24] = system: SR leukemia
[25] = system: UACC-257 melanoma
[26] = system: OVCAR-3 ovarian
[27] = system: SK-OV-3 ovarian
[28] = system: SF-539 CNS

C=C(C)C#CC(O)(C(=O)OC1CN2CCC1CC2)C1CCCCC1 (stereo unspecified)
GI50 [1]: > 100 µM | TGI [1]: > 100 µM | GI50 [2]: > 100 µM | TGI [2]: > 100 µM | GI50 [3]: > 100 µM | TGI [3]: > 100 µM | GI50 [4]: > 100 µM | TGI [4]: > 100 µM | GI50 [5]: > 100 µM | TGI [5]: > 100 µM | GI50 [6]: > 100 µM | TGI [6]: > 100 µM | GI50 [7]: > 100 µM | TGI [7]: > 100 µM | GI50 [8]: > 100 µM | TGI [8]: > 100 µM | GI50 [9]: > 100 µM | TGI [9]: > 100 µM | GI50 [10]: 59.1 µM | TGI [10]: > 100 µM | GI50 [11]: > 100 µM | TGI [11]: > 100 µM | GI50 [12]: > 100 µM | TGI [12]: > 100 µM | GI50 [13]: > 100 µM | TGI [13]: > 100 µM | GI50 [14]: > 100 µM | TGI [14]: > 100 µM | GI50 [15]: > 100 µM | TGI [15]: > 100 µM | GI50 [16]: > 100 µM | TGI [16]: > 100 µM | GI50 [17]: 12.4 µM | TGI [17]: > 100 µM | GI50 [18]: > 100 µM | TGI [18]: > 100 µM | GI50 [19]: > 100 µM | TGI [19]: > 100 µM | GI50 [20]: > 100 µM | TGI [20]: > 100 µM | GI50 [21]: > 100 µM | TGI [21]: > 100 µM | GI50 [22]: > 100 µM | TGI [22]: > 100 µM | GI50 [23]: > 100 µM | TGI [23]: > 100 µM | GI50 [24]: > 100 µM | TGI [24]: > 100 µM | GI50 [25]: > 100 µM | TGI [25]: > 100 µM | GI50 [26]: > 100 µM | TGI [26]: > 100 µM | GI50 [27]: > 100 µM | TGI [27]: > 100 µM | GI50 [28]: > 100 µM | TGI [28]: > 100 µM
